{"sequences": {"note": "Protein sequences, listed by entry. Tags and fused reporters are not part of them.", "UniProt P31652, whole entry": "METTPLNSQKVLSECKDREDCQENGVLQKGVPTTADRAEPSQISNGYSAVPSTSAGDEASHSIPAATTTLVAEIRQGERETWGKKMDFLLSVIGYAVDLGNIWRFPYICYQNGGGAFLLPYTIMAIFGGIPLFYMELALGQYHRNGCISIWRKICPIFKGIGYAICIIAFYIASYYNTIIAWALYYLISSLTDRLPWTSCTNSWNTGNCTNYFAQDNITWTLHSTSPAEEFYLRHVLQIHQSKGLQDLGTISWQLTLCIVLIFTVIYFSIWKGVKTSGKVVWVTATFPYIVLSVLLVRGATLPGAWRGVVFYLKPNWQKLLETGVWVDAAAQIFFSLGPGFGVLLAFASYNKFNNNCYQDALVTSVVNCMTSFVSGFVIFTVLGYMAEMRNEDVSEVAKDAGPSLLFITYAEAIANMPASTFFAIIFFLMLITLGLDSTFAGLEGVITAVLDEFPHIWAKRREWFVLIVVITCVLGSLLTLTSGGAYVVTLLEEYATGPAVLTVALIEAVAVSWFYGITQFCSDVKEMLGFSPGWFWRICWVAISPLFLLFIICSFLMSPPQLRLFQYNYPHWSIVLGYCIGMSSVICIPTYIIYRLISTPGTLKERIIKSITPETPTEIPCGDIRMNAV"}, "source": "patent US8598119B2", "about": "“Methods and compositions for sleep disorders and other disorders” (priority 2008, dated 2013)", "origin": "cited, not measured here", "target": "SERT (rat forebrain synaptosomal membrane) (Rattus norvegicus (Rat), UniProt P31652)", "details": "read-out: Ki of reference agents, rat forebrain SERT assay; assay validation / reference agents, Caliper assay #100-0056; cited from earlier work"}
{"compound": "Fc1ccc([C@@H]2CCNC[C@H]2COc2ccc3c(c2)OCO3)cc1", "values": [{"measurement": "Ki", "value": 0.1, "unit": "nM"}]}
